One assay relates to KARPAS-422. Nature of the assay: cells. The conditions noted are these: Homo sapiens, KARPAS-422, 168 h.
In the next assay the test system is Pfeiffer. Nature of the assay: Growth inhibition of human Pfeiffer cells incubated for 7 days by WST8 assay. The settings on record: 168 h. The format is functional, cell-based.

The structures appear in SMILES notation.

Broadly, the IC50 is the midpoint of a concentration-inhibition curve. Read a low IC50 as greater potency. Consider `Cc1ccc(-c2cnc(NCc3c(F)ccc4c3CCO4)n3cnc(S(C)(=O)=O)c23)c(C)n1`, for which the figures for the IC50 in the assay on KARPAS-422 and in the assay on Pfeiffer were 2.8 nM and 0.07 nM, respectively.
For the molecule `CCOC(=O)c1ncn2c(NCc3c(F)ccc4c3CCO4)ncc(-c3ccccc3)c12`, it took 12 nM to reach half-maximal inhibition in the assay on KARPAS-422 (IC50).
Consider `c1ccc(-c2cnc(NCc3ccco3)n3cncc23)cc1`, for which the IC50 in the assay with KARPAS-422 amounted to 2600 nM.
In the assay with KARPAS-422, `CCOC(=O)c1ncn2c(NCc3ccccc3OC)ncc(-c3ccccc3)c12` had a half-maximal inhibitory concentration (IC50) of 1900 nM. The IC50 values of the last two molecules are within 1.5-fold of each other.

The values above are taken from ChEMBL document CHEMBL4610126.
